From paper PMC9699427 (Viruses, 2022)

Target: recombinant HIV-1 RT (Human immunodeficiency virus type 1 group M subtype B, UniProt P03366)
Test: biochemical

Question: For `Cc1cc(C#N)cc(C)c1Oc1nc(Nc2ccc(C#N)cc2)nc(N)c1Br` [ETR, etravirine, reference compound], which EC50 is on record?
Answer: 1310 ± 320 nM
